Source: patent publication US10941187B2 (The United States of America, as represented by the …, priority 2001, dated 2021)

Experiments:
[1] = system: fasted, diabetic Zucker rats; test: Duration of in vivo insulinotropic action after intraperitoneal peptide; design: species or system rat; conditions: 0.4 nmol/kg i.p., up to 24 h
[2] = system: fasted, diabetic Zucker rats; test: Acute in vivo insulin response after intravenous peptide; design: species or system rat; conditions: 0.4 nmol/kg i.v.

CC[C@H](C)[C@H](NC(=O)[C@H](Cc1ccccc1)NC(=O)[C@H](CCC(=O)O)NC(=O)[C@H](CCCCN)NC(=O)[C@H](C)NC(=O)[C@H](C)NC(=O)[C@H](CCC(N)=O)NC(=O)CNC(=O)[C@H](CCC(=O)O)NC(=O)[C@H](CC(C)C)NC(=O)[C@H](Cc1ccc(O)cc1)NC(=O)[C@H](CO)NC(=O)[C@H](CO)NC(=O)[C@@H](NC(=O)[C@H](CC(=O)O)NC(=O)[C@H](CO)NC(=O)[C@@H](NC(=O)[C@H](Cc1ccccc1)NC(=O)[C@@H](NC(=O)CNC(=O)[C@H](CCC(=O)O)NC(=O)CNC(=O)[C@@H](N)Cc1c[nH]cn1)[C@@H](C)O)[C@@H](C)O)C(C)C)C(=O)N[C@@H](C)C(=O)N[C@@H](Cc1c[nH]c2ccccc12)C(=O)N[C@@H](CC(C)C)C(=O)N[C@H](C(=O)N[C@@H](CCCCN)C(=O)NCC(=O)N[C@@H](CCCNC(=N)N)C(N)=O)C(C)C [GLP-1 Gly^8]
duration of action on plasma insulin levels [1]: intermediate between GLP-1 and exendin-4 | peak plasma insulin concentrations [2]: potently increased plasma insulin concentrations | peak plasma insulin concentrations ([2]; listed as peptide 1): more potent than equimolar GLP-1
